{"sequences": {"note": "Protein sequences, listed by entry. Tags and fused reporters are not part of them. Residues count along the entry.", "UniProt A0A5F9DS62, 1-428": "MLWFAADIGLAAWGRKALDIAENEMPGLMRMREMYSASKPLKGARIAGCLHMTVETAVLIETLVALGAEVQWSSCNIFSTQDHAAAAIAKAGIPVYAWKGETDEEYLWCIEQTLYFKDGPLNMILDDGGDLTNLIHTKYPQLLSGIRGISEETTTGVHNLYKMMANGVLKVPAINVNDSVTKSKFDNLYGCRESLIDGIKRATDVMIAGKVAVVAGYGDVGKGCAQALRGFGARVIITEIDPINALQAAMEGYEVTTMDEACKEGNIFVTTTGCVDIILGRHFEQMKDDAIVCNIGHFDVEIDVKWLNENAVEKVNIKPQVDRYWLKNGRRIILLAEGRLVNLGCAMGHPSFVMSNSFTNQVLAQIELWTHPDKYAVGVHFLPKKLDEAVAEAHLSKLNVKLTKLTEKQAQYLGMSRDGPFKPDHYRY"}, "source": "patent US10227373B2", "about": "(priority 2014, dated 2019)", "molecular_target": "S-adenosylhomocysteine hydrolase (SAHase) (Oryctolagus cuniculus, UniProt A0A5F9DS62)", "experiment": "SAHase inhibition (release of free homocysteine)", "assay_type": "biochemical", "conditions": "SAHase from rabbit erythrocytes; read-out: IC50 versus SAHase"}
{"substance": "Neplanocin A", "values": [{"measurement": "IC50", "result": 0.9, "unit": "nM"}]}
